# Assay results from PubChem BioAssay AID1259374 (The Scripps Research Institute Molecular Screening Center, 2018).
# Chains of the proteins cited; added tags and fusions are not shown. Lines headed by an entry give the natural chain unless they say otherwise; changes in a name come on top.
# UniProt O75030: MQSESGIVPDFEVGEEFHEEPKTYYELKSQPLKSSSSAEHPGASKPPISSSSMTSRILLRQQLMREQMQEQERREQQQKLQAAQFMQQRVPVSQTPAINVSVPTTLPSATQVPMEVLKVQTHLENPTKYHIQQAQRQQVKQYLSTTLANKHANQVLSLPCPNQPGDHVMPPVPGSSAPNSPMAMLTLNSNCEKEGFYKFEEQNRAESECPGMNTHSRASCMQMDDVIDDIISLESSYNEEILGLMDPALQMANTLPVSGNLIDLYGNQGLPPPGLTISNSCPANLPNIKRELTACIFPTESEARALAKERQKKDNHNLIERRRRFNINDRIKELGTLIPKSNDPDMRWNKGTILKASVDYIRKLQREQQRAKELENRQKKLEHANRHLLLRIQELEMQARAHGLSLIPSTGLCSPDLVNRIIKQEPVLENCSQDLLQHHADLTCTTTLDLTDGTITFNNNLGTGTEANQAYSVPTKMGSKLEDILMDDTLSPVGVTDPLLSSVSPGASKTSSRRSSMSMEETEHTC
# This is a selection; strong and weak results do not stand in their true shares. Activity calls are given as the source filed them. Rule as the data show it: active = inhibition above about 50%; inactive = the rest.
# Target: Microphthalmia-associated transcription factor (Homo sapiens) (UniProt O75030)
# Test: MITF inhibitors, primary screen, biochemical, AlphaScreen, human (AID 1259374);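 also: 0% = vehicle wells with protein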
# Settings: AlphaScreen MITF homodimerization, bead proximity signal; at 2.6 µM; active compounds read high
row,Structure (SMILES),inhibition
1,O=C(O)C(Cl)CSc1nc2ccccc2o1 (configuration not stated),inactive: -9%
2,COCCN(CCOC)C(=O)COC(=O)C(O)(c1ccccc1)c1ccccc1,inactive: 4.16%
3,CN(C)C1(CNC(=O)c2ccc(S(C)(=O)=O)cc2)CCCCC1,inactive: -5.69%
4,O=C(Cc1ccc(F)cc1)N(Cc1ccco1)C1CCN(CCc2ccccn2)CC1,inactive: 2.7%
5,CCc1cccc(NC(=O)Oc2c([N+](=O)[O-])cc([N+](=O)[O-])cc2[N+](=O)[O-])c1,inactive: 11.8%
6,O=C(c1ccco1)N(Cc1cccnc1)C1CCN(CCc2ccc(Cl)cc2)CC1,inactive: -5.37%
7,COc1cc([N+](=O)[O-])cc([N+](=O)[O-])c1N/N=C(/C)c1cccc([N+](=O)[O-])c1,inactive: -19.9%
8,CC(Cl)(CSSCC(C)(Cl)C(=O)O)C(=O)O (configuration not stated),inactive: 6.78%
9,CC1(CBr)Cn2c(nc3ccccc3c2=O)S1 (configuration not stated),inactive: 12.5%
10,COC(=O)c1nsnc1NCCCl,inactive: 2.64%
11,Cc1ccc(S(=O)(=O)NCCCCC(NC(=O)OC(C)(C)C)C(=O)O)cc1 (configuration not stated),inactive: 9.24%
12,COC(=O)c1cc([N+](=O)[O-])c(Nc2ccc([N+](=O)[O-])cc2Br)c([N+](=O)[O-])c1,inactive: 12.3%
13,O=C(Nc1ccc(Br)cc1[N+](=O)[O-])c1cc([N+](=O)[O-])cc([N+](=O)[O-])c1,inactive: 29.5%
14,CCCCC(NC(=O)OC(C)(C)C)C(=O)O (configuration not stated),inactive: -6.64%
15,CCOP(=O)(CN)OCC,active: 55.5%
16,CN(CCCl)Cc1cc(Cl)c(NC2=NCCN2)c(Cl)c1,inactive: 3.25%
17,O=P1(Nc2ccccn2)COc2ccccc2OC1,inactive: -4.41%
18,O=[N+]([O-])c1cc([N+](=O)[O-])c(N2CCCCC2)c([N+](=O)[O-])c1,inactive: 23.1%
19,CCOc1ccc(NC(=O)c2ccc([N+](=O)[O-])cc2[N+](=O)[O-])c([N+](=O)[O-])c1,inactive: 16.8%
20,COc1ccc2nc(SCc3ccc(C(=O)O)cc3)[nH]c2c1,inactive: 4.65%
21,COc1cccc(OP(=O)(Nc2ccccn2)Oc2cccc(OC)c2)c1,inactive: 2.38%
22,CCOP(=O)(NC(=NC(C)c1ccccc1)NC(C)c1ccccc1)OCC (configuration not stated),inactive: -4.84%
23,n1[nH]nc2c1c1n[nH]nc1c1n[nH]nc21,inactive: 28.6%

row,Structure (SMILES),inhibition
1,CCOc1ccc(NP2(=O)C=C(Cl)N(C)C(=O)N2C)cc1 (configuration not stated),inactive: 13.4%
2,CC(C)(C)C(=O)NC(Sc1ncccn1)C(Cl)(Cl)Cl (configuration not stated),inactive: 3.86%
3,O=P(/C=C(\Cl)c1ccccc1)(/C=C(\Cl)c1ccccc1)Nc1nncs1,inactive: 8.26%
4,CC(C)NC(=O)N(Cc1ccco1)C1CCN(CCc2cccs2)CC1,inactive: 6.21%
5,O=C(Nc1cccc(F)c1)N(Cc1ccco1)C1CCN(CCc2ccccn2)CC1,inactive: 9.15%
6,O=C(Nc1c(Cl)cc([N+](=O)[O-])cc1[N+](=O)[O-])c1ccc([N+](=O)[O-])cc1,inactive: -12.3%
7,BrCC1Cn2c(nnc2-c2cccnc2)S1 (configuration not stated),inactive: -9.5%
8,COc1ccc(/C=C2/C(=O)NC(=O)N(Cc3ccco3)C2=O)c(OC)c1,active: 62.8%
9,O=[N+]([O-])c1ccc(N/N=C/C=C/c2ccc([N+](=O)[O-])o2)c([N+](=O)[O-])c1,inactive: 28%
10,COc1ccc(S(=O)(=O)N(CCCl)CCCl)cc1,inactive: -5.76%
11,CC(C)NC(=O)N(Cc1cccnc1)C1CCN(CCc2cccs2)CC1,inactive: 2.11%
12,Cc1ccc(NP(=O)(OCC(C)C)OCC(C)C)nc1,inactive: 7.75%
13,COc1ccc(CCN2CCC(N(Cc3ccco3)C(=O)c3cccc(C#N)c3)CC2)cc1,inactive: 13.5%
14,O=C(N/N=C/c1ccc([N+](=O)[O-])o1)c1cc([N+](=O)[O-])cc([N+](=O)[O-])c1,inactive: 15.2%
15,CCOP(=O)(Nc1cccc(F)c1)OCC,inactive: -15.2%
16,CNC(=O)c1nsnc1NCCCl,inactive: 4.12%
17,CC1Cc2ccccc2N1C(=O)COC(=O)C(O)(c1ccccc1)c1ccccc1 (configuration not stated),inactive: 2.34%
18,O=C(Nc1cccc(F)c1)N(Cc1ccco1)C1CCN(CCc2cccs2)CC1,inactive: -0.42%
19,O=C(COc1ccccc1[N+](=O)[O-])N/N=C/c1cc([N+](=O)[O-])cc([N+](=O)[O-])c1O,inactive: -9.62%
20,C/C(=N\Nc1ccc([N+](=O)[O-])cc1[N+](=O)[O-])c1ccc([N+](=O)[O-])cc1,inactive: 9.14%
21,O=C(COC(=O)C(O)(c1ccccc1)c1ccccc1)NCCN1C(=O)CSC1=O,inactive: 0.29%
22,COc1ccccc1OP(=O)(Nc1ccccn1)Oc1ccccc1OC,inactive: 5.39%
23,CCc1cc2c[n+](C3CCCCC3)sc2s1,inactive: -1.49%

row,Structure (SMILES),inhibition
1,CC(=O)OC1CN2CCC1C(c1ccccc1)C2 (configuration not stated),inactive: 14.1%
2,O=[N+]([O-])c1cc([N+](=O)[O-])c(NCCCO)c([N+](=O)[O-])c1,inactive: -9.57%
3,CCOC(=O)C(C)NC(=O)CSP(=O)(OCC)OCC (configuration not stated),inactive: 2.78%
4,COC(=O)N(c1ccccc1)P1OCC(C)O1 (configuration not stated),inactive: 13.1%
5,CC(C)OP(=O)(OC(C)C)N1CCCCC1,inactive: 8.54%
6,CCOc1ccc(S(=O)(=O)N(CCCl)CCCl)cc1,inactive: -10.8%
7,O=C(OC1CN2CCC1CC2)c1cccc(Cl)c1 (configuration not stated),inactive: 12.3%
8,Nc1nonc1OCc1nonc1COc1nonc1N,inactive: 11.6%
9,CC(=O)O[C@H]1CN2CCC1[C@@H](c1ccccc1)C2 (some centres not stated),inactive: 3.4%
10,O=C(c1ccco1)N(Cc1cccnc1)C1CCN(CCc2ccccn2)CC1,inactive: 6.76%
11,CCOP(=S)(NN(CCCl)c1ccccc1)OCC,inactive: 1.44%
12,CN(C(=O)Cc1ccc(Cl)c(Cl)c1)[C@@H]1CCCC[C@@H]1N1CCCC1,inactive: 21.4%
13,COc1ccc([N+](=O)[O-])cc1NC(=O)c1ccc([N+](=O)[O-])cc1[N+](=O)[O-],inactive: 9.23%
14,O=c1c2cc([N+](=O)[O-])ccc2[nH]c2c([N+](=O)[O-])cc([N+](=O)[O-])cc12,inactive: 20.7%
15,CC(=O)N(Cc1ccco1)C1CCN(CCc2ccccn2)CC1,inactive: 13.4%
16,CC(C)OP(=O)(OC(C)C)C(C)N (configuration not stated),active: 58.9%
17,CN(C)c1ccc2c(c1)N1Cc3ccccc3C1=NP2(=O)c1ccccc1 (configuration not stated),inactive: -3.42%
18,Cc1c([N+](=O)[O-])cc(C(=O)c2cc([N+](=O)[O-])c(C)c([N+](=O)[O-])c2)cc1[N+](=O)[O-],inactive: -11.4%
19,O=C(COC(=O)C(O)(c1ccccc1)c1ccccc1)NC12CC3CC(CC(C3)C1)C2,inactive: -3.87%
20,ClC1CSc2nc3ccccc3n2C1 (configuration not stated),inactive: 3.95%
21,O=C(NNc1ccc([N+](=O)[O-])cc1[N+](=O)[O-])c1cccc([N+](=O)[O-])c1,inactive: 11.4%
22,O=C(c1cccc([N+](=O)[O-])c1)c1ccc([N+](=O)[O-])c([N+](=O)[O-])c1,inactive: 1.85%
23,O=[N+]([O-])c1ccc(N/N=C/c2ccc([N+](=O)[O-])o2)c([N+](=O)[O-])c1,inactive: 5.13%

row,Structure (SMILES),inhibition
1,COC(=O)N(c1ccccc1)P1(=S)OCC(C)O1 (configuration not stated),inactive: 17.6%
2,O=P1(c2ccccc2)N=C(c2ccccc2)NC(C(Cl)(Cl)Cl)=N1 (configuration not stated),inactive: 6.26%
3,O=C(Nc1cccc(F)c1)N(Cc1cccnc1)C1CCN(CCc2cccs2)CC1,inactive: 0.97%
4,CCOP(=O)(OCC)C(=O)c1ccccc1I,inactive: 2.51%
5,O=C(NNC1=NCC(CBr)S1)c1ccccc1 (configuration not stated),inactive: 1.63%
6,CCOC(=O)c1ccc(NC2=NCC(CBr)S2)cc1 (configuration not stated),inactive: 18.7%
7,Cc1ccc2nc(NCCCl)[nH]c2c1,inactive: -1.22%
8,CCOP(=O)(OCC)C(NC(=O)OC)C(Cl)(Cl)Cl (configuration not stated),inactive: -0.5%
9,O=[N+]([O-])c1ccc(NCCCCNc2ccc([N+](=O)[O-])cc2[N+](=O)[O-])c([N+](=O)[O-])c1,inactive: -0.99%
10,CCOP1(=O)O/C(=C\Cl)CN1c1ccccc1 (configuration not stated),inactive: -0.82%
11,Cc1ccc([N+](=O)[O-])c2no[n+]([O-])c12,active: 105%
12,O=P1(Nc2nc3ccc(Cl)cc3s2)COc2ccccc2O1 (configuration not stated),inactive: 27.1%
13,CN(C)c1ccc(/[N+]([O-])=C/c2c([N+](=O)[O-])cc([N+](=O)[O-])cc2[N+](=O)[O-])cc1,inactive: 21.2%
14,O=P1(Nc2nncs2)C=C(c2ccccc2)SC(c2ccccc2)=C1,inactive: -4.09%
15,CNc1c([N+](=O)[O-])cc([N+](=O)[O-])c2nonc12,inactive: 18.3%
16,Cc1cc(NC2=NC3C(C(=O)N(C)C(=O)N3C)N2C)n(-c2ccccc2)n1 (configuration not stated),inactive: 19.3%
17,CCOP(=O)(OCC)C(OC(=O)C(Cl)(Cl)Cl)=C(Cl)Cl,inactive: -0.86%
18,O=C(c1cccnc1)N(Cc1ccco1)C1CCN(CCc2ccccn2)CC1,inactive: 4.14%
19,O=[N+]([O-])c1cc([N+](=O)[O-])c(N(CC(O)CO)c2ccccc2)c([N+](=O)[O-])c1 (configuration not stated),inactive: 0.37%
20,COC(=O)C(CC(C)C)NC(=O)NP(=O)(Oc1ccccc1)Oc1ccccc1 (configuration not stated),inactive: -0.99%
21,O=C(Nc1ccc([N+](=O)[O-])cc1Cl)c1ccc([N+](=O)[O-])cc1[N+](=O)[O-],inactive: 6.39%
22,Nc1cc(N)c2nonc2c1[N+](=O)[O-],inactive: -9.92%
23,COc1ccc2c(c1)nc(NCCCl)n2C,inactive: 9.59%
